Laboratory results as given in PubChem BioAssay AID588627 (Johns Hopkins Ion Channel Center, 2011).
The list shows a part of the results, in another mix than the full data. Activity calls are given as the source filed them.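 The calls were made as follows: active = calcium response B-score plate-corrected fluorescence ratio at least 3 library SD, with starting fluorescence B-score inside 5 SD; inactive = the rest.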

Sequences of proteins named here, by UniProt entry; tags and fusion partners are left off. A change or cut given only in a name is not applied to a line headed by its entry.
UniProt Q96LB2: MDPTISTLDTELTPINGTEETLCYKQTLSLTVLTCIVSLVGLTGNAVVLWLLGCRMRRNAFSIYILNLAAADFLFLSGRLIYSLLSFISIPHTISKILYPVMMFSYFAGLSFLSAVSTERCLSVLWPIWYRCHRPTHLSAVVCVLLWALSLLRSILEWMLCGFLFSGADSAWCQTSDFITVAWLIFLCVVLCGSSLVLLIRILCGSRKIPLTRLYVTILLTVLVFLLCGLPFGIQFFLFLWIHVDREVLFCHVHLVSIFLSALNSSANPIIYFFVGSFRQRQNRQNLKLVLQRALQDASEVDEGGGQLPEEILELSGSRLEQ

Target: Mas-related G-protein coupled receptor member X1 (Homo sapiens) (UniProt Q96LB2)
Test: MrgX1 activation via calcium signaling – HEK293 cells, Fluo-4 calcium flux, primary screen (AID 588627);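 also: B-score of the peak-minus-trough calcium fluorescence change over baseline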
Settings: Fluo-4 calcium fluorescence, agonist mode, at 10 µM, active compounds read high
Method in brief: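 times = overnight plating, then 30 min 37 °C plus 30 min room-temperature dye loading | assay system = stable human MrgX1 HEK293 cell line | input = fifteen thousand cells per well | signal = kinetic calcium dye fluorescence, Fluo-4 NW | dosing = compound delivered in addition one of three | read-out = B-scored fluorescence response ratio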

| SMILES | B-score |
| --- | --- |
| CN(C)C1(CNC(=O)c2ccc(Cl)c(S(N)(=O)=O)c2)CCCCC1 | active: 37.3 |
| Cc1c2non([O-])c-2c(C)[n+](=O)[n+]1[O-] | active: 40 |
